Laboratory results as given in US20260384394A1, “(HETERO)ARYL-CARBONYL-HETEROBICYCLIC COMPOUNDS AS INHIBITORS OF PMS2 FOR CANCER AND DEGENERATIVE ILLNESSES” (published 2026).

By UniProt entry, the sequences of proteins in these tests, tags left out. Residues count along the entry.
UniProt P54278, 1-365 limits assumed: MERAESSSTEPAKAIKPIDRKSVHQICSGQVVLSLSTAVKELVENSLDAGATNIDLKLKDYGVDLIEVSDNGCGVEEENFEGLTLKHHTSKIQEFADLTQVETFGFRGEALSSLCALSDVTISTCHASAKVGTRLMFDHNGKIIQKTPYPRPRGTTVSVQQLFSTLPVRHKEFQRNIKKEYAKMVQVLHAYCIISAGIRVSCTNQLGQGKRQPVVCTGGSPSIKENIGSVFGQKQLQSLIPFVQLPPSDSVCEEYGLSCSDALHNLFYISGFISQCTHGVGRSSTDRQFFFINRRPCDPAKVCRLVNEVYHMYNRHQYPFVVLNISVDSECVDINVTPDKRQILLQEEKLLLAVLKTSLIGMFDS

Molecular target: recombinant N-terminal PMS2 (residues 1-365) (Homo sapiens, UniProt P54278)
Test: Fluorescence Polarisation Assay for PMS2 (displacement of fluorescent probe compound)
Settings: read-out: PMS2 IC50, 10 nM N-terminal PMS2, 5 nM probe compound, pH 7.5, room temperature, 30 min pre-incubation then 1 hour
Protocol: Fluorescence Polarisation Assay for PMS2
Test compounds, as 10 mM DMSO stocks, were dispensed into a Black Fluotrac 200 384 well medium binding plate (Greiner Bio-One, item number 781076) using a Labcyte Echo acoustic liquid handler. For single point screening, test compounds were added to wells in columns 1-22 whilst DMSO was added to wells in columns 23 and 24 in order to normalise the plate. For potency determination, serial dilutions of test compounds were added to wells in columns 3-22 and DMSO volume was normalised across the plate.
20 μL of a 2× solution (20 nM) of recombinant N-terminal PMS2 (residues 1-365) in assay buffer (25 mM HEPES, pH 7.5, 250 mM NaCl, 10 mM MgCl2, 0.01% Triton X-100, 5 mM Dithiothreitol) was added to all wells in columns 2-23 for potency determination or columns 1-23 for single point screening. 20 μL assay buffer was added to all wells in columns 1 and 24 (column 24 only for single point screening) using a MultiDrop Combi (ThermoFisher). Plates were centrifuged for 1 minute at 250×g and were incubated at room temperature for 30 minutes prior to the addition of 20 μL of 2×(20 nM) of 5-((5-(4-((2-(2,4-dihydroxy-5-isopropylbenzoyl)isoindolin5-yl)methyl)piperazin-1-yl)pentyl)carbamoyl)-2-(6-(dimethylamino)-3-(dimethyliminio)-3H-xanthen-9-yl)benzoate (referred to hereinafter as “probe compound”) in assay buffer (prepared from a 100 μM DMSO stock) with a MultiDrop Combi (ThermoFisher). The final concentration of N-terminal PMS2 was 10 nM and the final concentration of probe compound was 5 nM.
Compound plates were centrifuged for 1 minute at 250×g for 1 minute and were incubated at room temperature for 1 hour before being read on a PheraStar FSX (fitted with 384-well aperture spoon and 540 590 590 FP optic module). The gain and focus were adjusted before each plate was read so that the polarisation of a no enzyme control (column 24) was equal to 35 mP. Data were normalised against the no inhibitor controls (column 23) and no enzyme controls (column 24).

SMILES | pIC50
Cc1c(O)cc(O)c(C(=O)N2CCc3ccc(N(C)C(=O)/C=C/CN(C)C)cc3C2)c1C | > 7.00
CC(C)c1cc(C(=O)N2Cc3ccc(Cl)c(N(C)C(=O)/C=C/CN(C)C)c3C2)ccc1O | 6.00 to 7.00
Cc1c(O)cc(O)c(C(=O)N2Cc3cccc(NC(=O)/C=C/CN(C)C)c3C2)c1C | > 7.00
C=CC(=O)N(C)c1ccc2c(c1)CN(C(=O)c1c(O)cc(OC)c(Cl)c1C)CC2 | > 7.00
CCN(C(=O)/C=C/CN(C)C)c1cccc2c1CN(C(=O)c1c(O)cc(O)c(Cl)c1F)C2 | > 7.00
CN(C)C/C=C/C(=O)Nc1cccc2c1CN(C(=O)c1cc(C#N)c(O)cc1O)C2 | 6.00 to 7.00
Cc1cc(C(=O)N2Cc3cccc(N4CCC(=CCN(C)C)C4=O)c3C2)c(O)cc1O (single isomer, unassigned) | < 6.00
CN(C)C/C=C/C(=O)Nc1cccc2c1CN(C(=O)c1cc(Br)c(O)cc1O)C2 | > 7.00
COc1cc(O)c(C(=O)N2Cc3c(Cl)ccc(N(C)C(=O)/C=C/CN(C)C)c3C2)c(C)c1Cl | 6.00 to 7.00
C=CC(=O)N(C)c1cccc2c1CN(C(=O)c1cc(C(C)(C)C)c(OC)cc1O)C2 | < 6.00
C=CC(=O)N(C)c1ccc2c(n1)CN(C(=O)c1c(O)cc(OC)c(Cl)c1C)CC2 | > 7.00
CN(C)C/C=C/C(=O)N(C)c1cccc2c1CN(C(=O)c1c(O)cc(O)c(Cl)c1F)C2 | > 7.00
CN(C)C/C=C/C(=O)Nc1cccc2c1CN(C(=O)c1cc3cn[nH]c3cc1O)C2 | < 6.00
Cc1cc(C(=O)N2Cc3cccc(N(C)C(=O)/C=C/CN(C)C)c3C2)ccc1O | < 6.00
C=CC(=O)N(c1ccc2c(c1)CN(C(=O)c1cc(C(C)C)c(OC)cc1O)CC2)C1CCN(C)C1 (stereo not shown) | > 7.00
CN(C)C/C=C/C(=O)N(CCc1ccccc1)c1cccc2c1CN(C(=O)c1ccc(O)cc1O)C2 | > 7.00
C=CC(=O)N(C)c1cccc2c1CN(C(=O)c1c(O)cc(OC)c(Cl)c1C)C2 | 6.00 to 7.00
CC(C)c1cc(C(=O)N2Cc3cccc(NC(=O)/C=C/CN(C)C)c3C2)ccc1O | < 6.00
CN(C)C/C=C/C(=O)N(C)c1cccc2c1CN(C(=O)c1cc(C(C)(C)C)c(O)cc1F)C2 | < 6.00

SMILES | pIC50
CCN(C(=O)/C=C/CN(C)C)c1cccc2c1CN(C(=O)c1c(O)cc(O)c(C)c1C)C2 | > 7.00
C=CC(=O)N(Cc1ccccc1)c1cccc2c1CN(C(=O)c1ccc(O)cc1O)C2 | < 6.00
C=CC(=O)N(C)c1cc2c(cn1)CCN(C(=O)c1cc(C(C)C)c(OC)cc1O)C2 | 6.00 to 7.00
C=CC(=O)N(C)c1ccc2c(c1)CN(C(=O)c1cc(Cl)c(OC)cc1O)CC2 | 6.00 to 7.00
C=CC(=O)N(C)c1nc2c(cc1C)CCN(C(=O)c1c(O)cc(OC)c(Cl)c1C)C2 | > 7.00
Cc1cc(C(=O)N2Cc3cccc(NC(=O)/C=C/CN4CCOCC4)c3C2)c(O)cc1O | 6.00 to 7.00
C/C=C/C(=O)N(C)c1cnc2c(c1)CN(C(=O)c1c(O)cc(OC)c(Cl)c1C)CC2 | < 6.00
CN(C)C/C=C/C(=O)Nc1cccc2c1CN(C(=O)c1cc3cnoc3cc1O)C2 | < 6.00
CN(C)C/C=C/C(=O)N(C)c1cccc2c1CN(C(=O)c1cc(C(F)(F)F)c(O)cc1O)C2 | 6.00 to 7.00
C=CC(=O)N(C)c1cc2c(cc1C)CCN(C(=O)c1cc(C(C)C)c(F)cc1O)C2 | < 6.00
Cc1c(C(=O)N2Cc3ccc(Cl)c(NC(=O)/C=C/CN(C)C)c3C2)ccc(O)c1Cl | 6.00 to 7.00
CN(C)C/C=C/C(=O)N(Cc1ccccc1)c1cccc2c1CN(C(=O)c1ccc(O)cc1O)C2 | 6.00 to 7.00
Cc1cc(C(=O)N2Cc3cccc(N(CCc4ccncc4)C(=O)/C=C/CN(C)C)c3C2)c(O)cc1O | > 7.00
COCCN(C(=O)/C=C/CN(C)C)c1cccc2c1CN(C(=O)c1cc(C)c(O)cc1O)C2 | > 7.00
C=CC(=O)N(C)c1cccc2c1CN(C(=O)c1cc(C(C)(C)C)c(O)cc1O)C2 | > 7.00
C=CC(=O)Nc1cccc2c1CN(C(=O)c1c(C)cc(O)cc1O)C2 | 6.00 to 7.00
CN(C)C/C=C/C(=O)Nc1cccc2c1CN(C(=O)c1cc(F)c(O)cc1O)C2 | 6.00 to 7.00
C=CC(=O)N(C)c1ccc(Cl)c2c1CN(C(=O)c1c(O)cc(OC)c(Cl)c1C)C2 | 6.00 to 7.00

pIC50: −log10 of the molar value.
